According to PubChem BioAssay AID686996 (Broad Institute, 2013):
The list shows a part of the results, in another mix than the full data. Calls of active or inactive are those of the source.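 The calls were made as follows: active = mean inhibition across replicates at least about 35%, with every replicate also reaching that limit (limit read from the data); inconclusive = only one of the two criteria met; inactive = neither criterion met.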

Protein sequences, listed by entry. Tags and fused reporters are not part of them. Residues count along the entry.
UniProt P55212, 24-179 limits assumed: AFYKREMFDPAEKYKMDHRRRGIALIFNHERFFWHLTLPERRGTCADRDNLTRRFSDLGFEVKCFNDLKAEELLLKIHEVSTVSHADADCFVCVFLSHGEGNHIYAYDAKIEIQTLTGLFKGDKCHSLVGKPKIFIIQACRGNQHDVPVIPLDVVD
UniProt P55212, 194-293 limits assumed: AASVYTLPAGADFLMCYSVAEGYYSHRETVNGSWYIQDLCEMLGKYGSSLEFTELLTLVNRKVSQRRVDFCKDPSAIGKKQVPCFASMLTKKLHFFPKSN

What follows are molecules tested against Caspase-6 (Homo sapiens) (UniProt P55212) (assay: human caspase-6 inhibitors, primary screen, biochemical, VEID-R110 fluorescence, single point, set 2 (AID 686996;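 also: 0% = median of neutral control wells and 100% = no fluorescence left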)). Conditions: purified caspase-6, Z-VEID-R110 cleavage fluorescence; at 12.5 µM; hits give high values.
In the case of `O=c1[nH]c2ccccc2n1C1CCN(C(c2cccs2)c2nnnn2C2CCCCC2)CC1` (stereo not drawn), the inhibition was inactive: -0.023%.
With `COc1ccc(C(=O)NCC2(N3CCOCC3)CCCCC2)cc1OC` the inhibition was inactive: 1.49%.
With `O=c1[nH]c2ccccc2n1C1CCN(C(c2ccnc3ccccc23)c2nnnn2C2CCCC2)CC1` (stereo not drawn) the inhibition was inactive: -0.608%.
In the case of `CCCCn1nnnc1C(c1ccccc1)N1CCC(n2c(=O)[nH]c3ccccc32)CC1` (stereo not drawn), the inhibition was inactive: 0.184%.
For `COc1cc(C(=O)NCC2(N3CCOCC3)CCCCC2)cc(OC)c1C`, the inhibition was inactive: 4.31%.
With `O=C(NCC1(N2CCOCC2)CCCCC1)c1cc(Br)ccc1Cl` the inhibition was inactive: -4.1%.
With `O=c1[nH]c2ccccc2n1C1CCN(C(c2cccs2)c2nnnn2C2CCCC2)CC1` (stereo not drawn) the inhibition was inactive: -1.81%.
`CCCCn1nnnc1C(c1cccc(OC)c1OC)N1CCC(n2c(=O)[nH]c3ccccc32)CC1` (stereo not drawn) was tested, and the inhibition was inactive: 4.28%.
In the case of `CCOC(=O)N1CCC(Nc2ccc(C)cc2)CC1`, the inhibition was inactive: -6.18%.
With `COc1cccc(C(c2nnnn2C(C)(C)C)N2CCC(n3c(=O)[nH]c4ccccc43)CC2)c1OC` (stereo not drawn) the inhibition was inactive: 1.3%.
`N#Cc1ccc(C(=O)NCC2(N3CCCCC3)CCCCC2)cc1` was tested, and the inhibition was inactive: -2.7%.
With `CC(C)(C)OC(=O)N1CCC(N(C(=O)c2ccccc2)c2ccc(Cl)cc2)CC1` the inhibition was inactive: 2.42%.
In the case of `CC(C)(C)n1nnnc1C(c1cccc2ccccc12)N1CCC(n2c(=O)[nH]c3ccccc32)CC1` (stereo not drawn), the inhibition was inactive: 6.03%.
For `CN(C)C1(CNC(=O)c2cccc(C#N)c2)CCCCC1`, the inhibition was inactive: 1.3%.
`C/C(N)=N\P(=O)(Oc1ccccc1)Oc1ccccc1` was tested, and the inhibition was inactive: -0.975%.
With `CCCN1CCC(Nc2cc(OC)cc(OC)c2)CC1` the inhibition was inactive: -84.3%.
With `O=c1[nH]c2ccccc2n1C1CCN(C(c2ccccc2)c2nnnn2C2CCCC2)CC1` (stereo not drawn) the inhibition was inactive: -1.92%.
In the case of `Cc1cc(N(CCCl)CCCl)ccc1C=O`, the inhibition was inactive: -0.497%.
`Cc1ccc(C(=O)NCC2(N3CCCCC3)CCCCC2)o1` was tested, and the inhibition was inactive: -4.09%.
In the case of `Fc1ccccc1NC1CCN(Cc2ccccc2)CC1`, the inhibition was inactive: -3.14%.
`Cc1ccc(NC2(C#N)CCN(Cc3ccccc3)CC2)cc1` was tested, and the inhibition was inactive: -2.48%.
With `COc1cccc(C(c2nnnn2C2CCCCC2)N2CCC(n3c(=O)[nH]c4ccccc43)CC2)c1OC` (stereo not drawn) the inhibition was inactive: 1.8%.
In the case of `CC(=O)N(c1ccccc1)C1CCNCC1`, the inhibition was inactive: -5.45%.
In the case of `CCC(c1nnnn1C1CCCCC1)N1CCC(n2c(=O)[nH]c3ccccc32)CC1` (stereo not drawn), the inhibition was inactive: -0.468%.
`COc1cc(OC)cc(C(=O)NCC2(N3CCCCC3)CCCCC2)c1` was tested, and the inhibition was inactive: 3.7%.
In the case of `O=c1[nH]c2ccccc2n1C1CCN(C(c2ccnc3ccccc23)c2nnnn2C2CCCCC2)CC1` (stereo not drawn), the inhibition was inactive: 1.8%.
`O=C(NCC1(N2CCCCC2)CCCCC1)c1ccco1` was tested, and the inhibition was inactive: 0.898%.
With `CN(C)c1ccc(C(=O)NCC2(N3CCCCC3)CCCCC2)cc1` the inhibition was inactive: -1.79%.
`Cn1c(=O)[nH]cc(N(CCCl)CCCl)c1=O` was tested, and the inhibition was inactive: 1.32%.
`Cc1ccccc1NC1(C#N)CCN(Cc2ccccc2)CC1` was tested, and the inhibition was inactive: 1.21%.
`COc1ccc(C(c2nnnn2C2CCCCC2)N2CCC(n3c(=O)[nH]c4ccccc43)CC2)cc1` (stereo not drawn) was tested, and the inhibition was inactive: 1.28%.
`CC(C)(C)n1nnnc1C(c1ccnc2ccccc12)N1CCC(n2c(=O)[nH]c3ccccc32)CC1` (stereo not drawn) was tested, and the inhibition was inactive: 2.48%.
With `CC(C)(C)OC(=O)N1CCC(Nc2ccccc2)CC1` the inhibition was inactive: -1.12%.
`O=C(O)C1(Nc2ccccc2)CCN(Cc2ccccc2)CC1` was tested, and the inhibition was inactive: -4.16%.
`NN(c1ccccc1)C1CCN(CCc2ccccc2)CC1` was tested, and the inhibition was inactive: -3.86%.
With `O=c1[nH]c2ccccc2n1C1CCN(C(c2cc3ccccc3o2)c2nnnn2C2CCCC2)CC1` (stereo not drawn) the inhibition was inactive: 2.15%.
`CCCOc1ccc(C(=O)NCC2(N(C)C)CCCCC2)cc1` was tested, and the inhibition was inactive: -5.03%.
For `CN1CCC(Nc2ccc(F)c(Cl)c2)CC1`, the inhibition was inactive: -3.23%.
In the case of `CN1CCC(Nc2ccc(Cl)cc2)CC1`, the inhibition was inactive: -9.09%.
For `COc1cccc(C(c2nnnn2C2CCCC2)N2CCC(n3c(=O)[nH]c4ccccc43)CC2)c1OC` (stereo not drawn), the inhibition was inactive: 0.13%.
For `COc1cc(OC)cc(C(=O)NCC2(N3CCOCC3)CCCCC2)c1`, the inhibition was inactive: -0.782%.
For `COc1cccc(C(=O)N(c2cc(C)cc(C)c2)C2CCN(C(=O)OC(C)(C)C)CC2)c1`, the inhibition was inactive: 4.61%.
`CSc1ccccc1C(=O)NCC1(N2CCCCC2)CCCCC1` was tested, and the inhibition was inactive: -4.81%.
With `Cc1cccc(NC2(C#N)CCN(Cc3ccccc3)CC2)c1` the inhibition was inactive: -2.81%.
For `COc1ccc(C(=O)NCC2(N3CCCCC3)CCCCC2)cc1`, the inhibition was inactive: -3.8%.
In the case of `COc1ccc(C(=O)NCC2(N3CCCCC3)CCCCC2)c(OC)c1OC`, the inhibition was inactive: -3.81%.
With `CC(C)(C)OC(=O)N1CCC(N(C(=O)c2ccccc2)c2ccc(F)cc2)CC1` the inhibition was inactive: -0.349%.
`CCC(c1nnnn1C1CCCC1)N1CCC(n2c(=O)[nH]c3ccccc32)CC1` (stereo not drawn) was tested, and the inhibition was inactive: -2.15%.
`O=C(NCC1(N2CCCCC2)CCCCC1)c1ccc(=O)[nH]c1` was tested, and the inhibition was inactive: -5.1%.
With `CCCCn1nnnc1C(CC)N1CCC(n2c(=O)[nH]c3ccccc32)CC1` (stereo not drawn) the inhibition was inactive: 0.366%.
In the case of `O=C(NCC1(N2CCCCC2)CCCCC1)c1cccs1`, the inhibition was inactive: -118%.
With `CCCCn1nnnc1C(c1cccs1)N1CCC(n2c(=O)[nH]c3ccccc32)CC1` (stereo not drawn) the inhibition was inactive: 3.97%.
For `N#CC1(Nc2ccccc2)CCN(Cc2ccccc2)CC1`, the inhibition was inactive: 3.35%.
With `O=C(NCC1(N2CCCCC2)CCCCC1)c1ccc(Cl)s1` the inhibition was inactive: -3.62%.
`O=C(OC1CN2CCC1CC2)C1c2ccccc2Oc2ccccc21` (stereo not drawn) was tested, and the inhibition was inactive: -8.91%.
In the case of `O=c1[nH]c2ccccc2n1C1CCN(C(c2cc3ccccc3o2)c2nnnn2C2CCCCC2)CC1` (stereo not drawn), the inhibition was inactive: -0.031%.
`COc1ccc(Cl)cc1C(=O)NCC1(N2CCOCC2)CCCCC1` was tested, and the inhibition was inactive: 1.27%.
For `CCOC(=O)N1CCC(Nc2ccc(OC)cc2)CC1`, the inhibition was inactive: 2.27%.
With `CCCCn1nnnc1C(c1ccc(OC)cc1)N1CCC(n2c(=O)[nH]c3ccccc32)CC1` (stereo not drawn) the inhibition was inactive: 3.18%.
`O=C(NCC1(N2CCCCC2)CCCCC1)c1ccc(Cl)nc1` was tested, and the inhibition was inactive: -4.42%.
For `O=c1[nH]c2ccccc2n1C1CCN(C(c2ccccc2OC(F)(F)F)c2nnnn2C2CCCCC2)CC1` (stereo not drawn), the inhibition was inactive: -3.69%.
With `Cc1cc(C)cc(N(C(=O)c2ccccc2)C2CCN(C(=O)OC(C)(C)C)CC2)c1` the inhibition was inactive: 2.88%.
In the case of `O=P1(N(CCCl)CCCl)SCCCS1`, the inhibition was inactive: -6.23%.
In the case of `CCCCn1nnnc1C(c1cc2ccccc2o1)N1CCC(n2c(=O)[nH]c3ccccc32)CC1` (stereo not drawn), the inhibition was inactive: -2.46%.
For `CCCCOc1ccc(C(=O)NCC2(N3CCOCC3)CCCCC2)cc1`, the inhibition was inactive: -3.6%.
With `O=C(NCC1(N2CCCCC2)CCCCC1)c1ccc(F)cc1` the inhibition was inactive: -7.1%.
With `CCOC(=O)N1CCC(Nc2ccc(F)cc2)CC1` the inhibition was inactive: 1.42%.
In the case of `CC(C)(C)n1nnnc1C(c1ccccc1)N1CCC(n2c(=O)[nH]c3ccccc32)CC1` (stereo not drawn), the inhibition was inactive: -1.33%.
`O=C1CCN(Cc2ccccc2)CC1` was tested, and the inhibition was inactive: -3.08%.
For `CCOc1ccc(C)cc1CN(CCCl)CCCl`, the inhibition was inactive: -85.1%.
`CCOC(=O)N1CCC(Nc2cccc(C)c2)CC1` was tested, and the inhibition was inactive: -4.1%.
With `COc1cc(C(=O)NCC2(N(C)C)CCCCC2)ccc1OC(F)F` the inhibition was inactive: -0.781%.
For `O=c1[nH]c2ccccc2n1C1CCN(C(c2cccc3ccccc23)c2nnnn2C2CCCC2)CC1` (stereo not drawn), the inhibition was inactive: -1.09%.
`O=c1[nH]c2ccccc2n1C1CCN(C(c2ccccc2)c2nnnn2C2CCCCC2)CC1` (stereo not drawn) was tested, and the inhibition was inactive: 2.48%.
`CCN1CCC(Nc2ccc(Cl)cc2)CC1` was tested, and the inhibition was inactive: -19.1%.
`O=c1[nH]c2ccccc2n1C1CCN(C(c2ccccc2OC(F)(F)F)c2nnnn2C2CCCC2)CC1` (stereo not drawn) was tested, and the inhibition was inactive: 1.37%.
`CSc1ccc(C(=O)NCC2(N3CCOCC3)CCCCC2)cc1` was tested, and the inhibition was inactive: -2.37%.
For `O=C(NCC1(N2CCCCC2)CCCCC1)c1cccc([N+](=O)[O-])c1`, the inhibition was inactive: 5.61%.
With `CC(C)(C)n1nnnc1C(c1ccccc1OC(F)(F)F)N1CCC(n2c(=O)[nH]c3ccccc32)CC1` (stereo not drawn) the inhibition was inactive: 0.634%.
For `O=C(NCC1(N2CCCCC2)CCCCC1)c1ccc(OC(F)F)cc1`, the inhibition was inactive: -1.11%.
For `COc1cc(C(=O)NCC2(N3CCCCC3)CCCCC2)ccc1OC(F)F`, the inhibition was inactive: -18.9%.
`CN1CCN(CCOC(=O)C(O)(c2ccccc2)c2ccccc2)CC1` was tested, and the inhibition was inactive: -0.82%.
For `COc1ccc(NC2CCN(C(=O)OC(C)(C)C)CC2)cc1`, the inhibition was inactive: -0.192%.
`CC(C)c1ccc(C(=O)NCC2(N3CCOCC3)CCCCC2)cc1` was tested, and the inhibition was inactive: -1.32%.
In the case of `CCCCn1nnnc1C(c1cccc2ccccc12)N1CCC(n2c(=O)[nH]c3ccccc32)CC1` (stereo not drawn), the inhibition was inactive: -1.4%.
With `O=C(NCC1(N2CCCCC2)CCCCC1)c1cccc(C(F)(F)F)c1` the inhibition was inactive: -0.301%.
`COc1cc(OC)c(C(=O)NCC2(N(C)C)CCCCC2)cc1OC` was tested, and the inhibition was inactive: -2.43%.
With `O=C(NCC1(N2CCOCC2)CCCCC1)c1cc(F)c(F)cc1Cl` the inhibition was inactive: -6.07%.
With `CCC(c1nnnn1C(C)(C)C)N1CCC(n2c(=O)[nH]c3ccccc32)CC1` (stereo not drawn) the inhibition was inactive: 3.55%.
With `CCCCn1nnnc1C(c1ccnc2ccccc12)N1CCC(n2c(=O)[nH]c3ccccc32)CC1` (stereo not drawn) the inhibition was inactive: 4.47%.
With `CC(C)c1ccc(NC2CCN(C(=O)OC(C)(C)C)CC2)cc1` the inhibition was inactive: 2.17%.
In the case of `COc1ccc(CN(CCCl)CCCl)cc1Cl`, the inhibition was inactive: -46.6%.
In the case of `CN(C)c1cccc(C(=O)NCC2(N3CCCCC3)CCCCC2)c1`, the inhibition was inactive: 1.34%.
In the case of `COc1ccc(C(c2nnnn2C2CCCC2)N2CCC(n3c(=O)[nH]c4ccccc43)CC2)cc1` (stereo not drawn), the inhibition was inactive: -0.978%.
With `Cc1ccc(C(=O)NCC2(N(C)C)CCCCC2)o1` the inhibition was inactive: -0.48%.
With `CCCOc1ccc(C(=O)NCC2(N(C)C)CCCCC2)cc1OC` the inhibition was inactive: -1.64%.
For `CN1CCC(Nc2cccc(F)c2)CC1`, the inhibition was inactive: -7.06%.
`O=C(NCC1(N2CCCCC2)CCCCC1)c1cncc(Br)c1` was tested, and the inhibition was inactive: -2%.
